Measurements as given in PubChem BioAssay AID602261 (Sanford-Burnham Center for Chemical Genomics, 2012).
This is a selection; strong and weak results do not stand in their true shares. Activity calls are given as the source filed them.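 The calls were made as follows: active = compounds whose normalised, plate-corrected inhibition of enzyme fluorescence in the single-dose primary screen is 50% or more; inactive = the rest.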

Amino acid sequences for entries named in this document (tags omitted).
UniProt P49327, whole entry, looked up: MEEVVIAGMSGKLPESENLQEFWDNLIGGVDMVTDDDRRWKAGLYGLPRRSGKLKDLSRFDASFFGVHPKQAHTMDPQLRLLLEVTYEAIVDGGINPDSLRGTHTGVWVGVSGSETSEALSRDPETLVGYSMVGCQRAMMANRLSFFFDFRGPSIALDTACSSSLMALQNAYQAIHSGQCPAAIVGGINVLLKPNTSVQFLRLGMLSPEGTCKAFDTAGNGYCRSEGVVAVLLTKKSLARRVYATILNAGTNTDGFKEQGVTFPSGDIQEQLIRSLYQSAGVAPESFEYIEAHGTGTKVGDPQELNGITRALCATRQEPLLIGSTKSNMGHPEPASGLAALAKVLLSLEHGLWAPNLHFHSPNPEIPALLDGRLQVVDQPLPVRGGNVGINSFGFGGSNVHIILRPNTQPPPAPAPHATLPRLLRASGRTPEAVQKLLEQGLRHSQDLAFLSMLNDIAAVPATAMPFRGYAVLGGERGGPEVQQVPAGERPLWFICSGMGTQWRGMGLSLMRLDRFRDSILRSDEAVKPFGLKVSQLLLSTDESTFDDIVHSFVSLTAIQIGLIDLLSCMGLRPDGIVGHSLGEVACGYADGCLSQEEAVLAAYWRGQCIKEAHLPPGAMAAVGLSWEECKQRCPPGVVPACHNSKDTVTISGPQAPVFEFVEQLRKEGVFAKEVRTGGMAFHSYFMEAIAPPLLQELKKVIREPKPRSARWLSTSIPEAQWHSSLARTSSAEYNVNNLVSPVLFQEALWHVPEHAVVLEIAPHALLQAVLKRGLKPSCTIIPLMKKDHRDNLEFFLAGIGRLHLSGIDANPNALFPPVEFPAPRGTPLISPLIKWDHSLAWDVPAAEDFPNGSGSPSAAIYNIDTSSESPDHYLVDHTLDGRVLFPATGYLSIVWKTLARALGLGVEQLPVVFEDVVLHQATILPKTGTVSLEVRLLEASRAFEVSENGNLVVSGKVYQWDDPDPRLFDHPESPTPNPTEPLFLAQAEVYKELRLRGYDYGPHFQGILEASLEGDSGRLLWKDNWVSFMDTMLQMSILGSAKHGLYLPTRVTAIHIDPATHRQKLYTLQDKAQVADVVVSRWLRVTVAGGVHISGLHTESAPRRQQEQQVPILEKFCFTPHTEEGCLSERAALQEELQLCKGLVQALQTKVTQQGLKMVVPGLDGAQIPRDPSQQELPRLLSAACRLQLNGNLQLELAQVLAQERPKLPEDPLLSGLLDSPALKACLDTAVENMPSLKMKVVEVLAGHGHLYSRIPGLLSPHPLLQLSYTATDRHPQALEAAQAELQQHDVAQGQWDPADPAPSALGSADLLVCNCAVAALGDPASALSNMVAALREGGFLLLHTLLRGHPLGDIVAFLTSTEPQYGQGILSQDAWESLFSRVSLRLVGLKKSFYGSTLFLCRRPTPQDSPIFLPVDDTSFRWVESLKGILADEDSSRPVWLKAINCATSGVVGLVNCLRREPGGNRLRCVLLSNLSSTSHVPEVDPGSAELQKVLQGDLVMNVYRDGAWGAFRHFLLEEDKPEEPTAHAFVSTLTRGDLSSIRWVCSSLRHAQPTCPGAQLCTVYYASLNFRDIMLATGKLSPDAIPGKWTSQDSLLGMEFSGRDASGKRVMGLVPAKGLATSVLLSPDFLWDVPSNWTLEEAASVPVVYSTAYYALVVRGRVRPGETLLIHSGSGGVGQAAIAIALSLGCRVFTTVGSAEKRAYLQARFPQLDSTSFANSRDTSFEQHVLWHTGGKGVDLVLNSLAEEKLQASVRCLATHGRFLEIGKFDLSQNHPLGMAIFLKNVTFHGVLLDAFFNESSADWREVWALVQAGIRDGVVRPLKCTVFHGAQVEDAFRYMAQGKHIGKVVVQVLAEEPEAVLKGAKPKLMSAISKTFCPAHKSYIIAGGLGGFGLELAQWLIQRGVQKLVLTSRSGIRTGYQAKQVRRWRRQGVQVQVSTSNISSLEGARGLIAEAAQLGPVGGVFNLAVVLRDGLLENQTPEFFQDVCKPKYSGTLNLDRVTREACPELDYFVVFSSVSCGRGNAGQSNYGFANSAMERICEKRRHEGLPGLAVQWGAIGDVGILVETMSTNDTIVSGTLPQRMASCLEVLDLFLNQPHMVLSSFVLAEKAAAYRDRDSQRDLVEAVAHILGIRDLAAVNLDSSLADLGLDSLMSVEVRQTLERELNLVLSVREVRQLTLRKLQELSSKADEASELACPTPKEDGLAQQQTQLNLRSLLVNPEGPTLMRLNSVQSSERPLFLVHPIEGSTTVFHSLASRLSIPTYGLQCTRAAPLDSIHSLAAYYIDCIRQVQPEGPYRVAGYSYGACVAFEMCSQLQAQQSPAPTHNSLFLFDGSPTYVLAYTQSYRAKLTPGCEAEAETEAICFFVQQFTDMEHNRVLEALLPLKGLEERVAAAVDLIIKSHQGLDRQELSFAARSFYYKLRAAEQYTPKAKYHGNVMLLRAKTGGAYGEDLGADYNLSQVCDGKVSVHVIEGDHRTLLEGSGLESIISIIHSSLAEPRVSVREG

Biological target: Fatty acid synthase (Homo sapiens) (UniProt P49327)
Assay: inhibition of human FAS-TE enzyme activity – biochemical, fluorescence intensity, uHTS, primary screen (AID 602261);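 also: 0% = DMSO with enzyme and 100% = substrate without enzyme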
Conditions: recombinant FAS-TE, OMFH fluorogenic substrate, fluorescence endpoint; at 15 µM; stronger effect = higher value

Compound	inhibition
O=P(Nc1nccs1)(c1ccccc1)c1ccccc1	inactive: -8.4%
CC(C)C(=O)NC(Sc1ccccc1)C(Cl)(Cl)Cl (stereo not drawn)	inactive: -4.7%
c1nnnn1CCn1cnnn1	inactive: -8%
COc1ccc(N)c([N+](=O)[O-])c1[N+](=O)[O-]	inactive: 4.1%
Nc1ccc(CCCCOc2ccccc2)cc1	inactive: 14.4%
CN(C)C1(CNC(=O)c2ccc(Cl)c(S(N)(=O)=O)c2)CCCCC1	inactive: -9%
O=P(Nc1ccccn1)(c1ccc(Br)cc1)c1ccc(Br)cc1	inactive: 9%
O=P(Nc1nc2ccccc2s1)(c1ccccc1)c1ccccc1	inactive: -1.9%
C[C@H]1OP(=O)(Oc2ccccc2)[C@H](O)[C@H](O)[C@H]1N=[N+]=[N-] (stereo partly drawn)	inactive: -7.3%
O=[N+]([O-])c1ncn(CCn2cnc([N+](=O)[O-])n2)n1	inactive: -6.7%
CC(=O)NC(SC(=S)N(C)C)C(Cl)(Cl)Cl (stereo not drawn)	inactive: -21.8%
O=[N+]([O-])c1ccc(O)c(/C=N/Nc2ccc([N+](=O)[O-])cc2[N+](=O)[O-])c1	active: 61.3%
O=[As](O)(c1ccccc1)c1ccc(O)cc1	inactive: -4%
C(Cc1nn[nH]n1)Cc1nn[nH]n1	inactive: -11.6%
Nc1ccc([As](=O)(O)c2ccc([N+](=O)[O-])cc2)cc1	inactive: -3.6%
O=C(OC1CN2CCC1CC2)c1cccc(Cl)c1 (stereo not drawn)	inactive: -7.1%
O=C(NC1CCS(=O)(=O)C1)NP(=S)(Oc1ccccc1)Oc1ccccc1 (stereo not drawn)	inactive: 2.4%
CCNC(=S)/N=C(\N)N[N+](=O)[O-]	inactive: -4.1%
c1ccc(-c2nn[nH]n2)c(-c2nn[nH]n2)c1	inactive: -0.7%
Cc1ccc(NP(=O)(Oc2cccc(C)c2)Oc2cccc(C)c2)nc1	inactive: -4.2%
O=P1(N(CCCl)CCCl)OCCC2CCCCN21 (stereo not drawn)	inactive: -1.8%
COC(=O)c1cc2c(s1)N=C(c1ccccc1)N(C)P2(=O)N1CCOCC1 (stereo not drawn)	inactive: -7.2%
Cc1ccc(OP(=O)(Nc2ccccn2)Oc2ccc(C)cc2)cc1	inactive: 2.2%
CC(=O)NC(SC(=S)N(CC(C)C)CC(C)C)C(Cl)(Cl)Cl (stereo not drawn)	inactive: 3.9%
O=C(OC1CN2CCC1CC2)c1ccccc1 (stereo not drawn)	inactive: -2%
CCC(=O)N1C2C3N(C(=O)CC)C1C1N(C(=O)CC)C(C(N1C(=O)CC)N3C(=O)CC)N2C(=O)CC	inactive: -5.7%
CC(NC(=O)COC(=O)C(O)(c1ccccc1)c1ccccc1)c1ccccc1 (stereo not drawn)	inactive: 3.8%
Cc1ccccc1OP(=O)(Nc1ccccn1)Oc1ccccc1C	inactive: 5.2%
